From patent US11579147B2, “Use of VNN1 as a biomarker and a therapeutic target in sarcomas” (INSERM (Institut National de la Santé et de la Recherche …, priority 2017, dated 2023)

Assays:
R tumors = test: tumor growth in C57BL/6 mice grafted with R cells; details: mouse, in vivo
R/VR chimeric tumors = details: mouse, in vivo

CC(C)(CO)C(O)C(=O)NCCC(=O)NCCSSCCNC(=O)CCNC(=O)C(O)C(C)(C)CO (centres unmarked) [pantethine, N-[2-[2-[2-[3-(2,4-Dihydroxy-3,3-dimethyl-butanoyl)aminopropanoylamino]ethyldisulfanyl]ethylcarbamoyl]ethyl]-2,4-dihydroxy-3,3-dimethyl-butanamide]
growth of R tumors (R tumors): reduce the growth of R tumors | growth of R/VR chimeric tumors (R/VR chimeric tumors): inhibitory effect is further enhanced
